Molecular target: Cyclin-dependent kinase 2 (Homo sapiens, UniProt P24941)

## COc1nc(N)nc2nc[nH]c12 [METHYLGUANINE]
  IC50: > 100 µM

From ChEMBL document CHEMBL4004788, “Cyclin-Dependent Kinase (CDK) Inhibitors: Structure-Activity Relationships and Insights into the CDK-2 Selectivity of 6-Substituted 2-Arylaminopurines” (J Med Chem, 2017)
